This note sets out measurements from patent US20240058288A1, “DRUG COCKTAIL FOR TREATMENT OF PARKINSON'S DISEASE, LEWY BODY DISEASE AND MULTIPLE SYSTEM ATROPHY” (ALETA NEUROSCIENCE, LLC, priority 2021, published 2024).

In the experiment the test system is human dopaminergic neurons (iCell DopaNeurons). The experiment can be described thus: MPP+-induced neurotoxicity: neurite outgrowth (neurite length, branch points) of iCell DopaNeurons, Incucyte. It is filed as cell-based. From the text:
We conducted an in vitro study of the drugs in Table 1 to evaluate the neuroprotective effects of 44 conditions of treatment (Table 2, experiments 1-41; 51-53) against MPP+-induced neurodegeneration toxicity on human dopaminergic neurons (iCell® DopaNeurons: iPS cell-derived human midbrain floorplate dopaminergic neurons). Further combinations (Table 2, experiments 42-50 and Table 3) are also disclosed.
iCell DOPA neurons are neural floor plate-derived midbrain dopaminergic neurons generated from human induced pluripotent stem cells (iPSCs). […]
Three different measurements were made in the experiments. […] Experimental conditions were measured relative to the results of healthy cells in the studies. […]
For the evaluation of conditions 1-28, Neurite outgrowth was followed for subsequent 48 hours using an Incucyte Zoom platform with one phase contrast image every 4 hours, using a 20× objective. After 48 hours, the medium containing test compounds and MPP+ was removed and replaced by fresh medium containing a fluorescent cytolysis marker (red fluorescence) and a live cell marker (green fluorescence). […]
Assay endpoints and data analysis. Phase contrast images were analyzed at each time point to determine the neurite length and number of branch points per mm^2. […]

For the molecule `COc1cc2nc(N3CCN(C(=O)C4CCCO4)CC3)nc(N)c2cc1OC` (centres unmarked) [TZ, Terazosin], the “Neurite length - Baseline-corrected AUC (0-72 h), Mean” value came to 661 mm/mm^2 and the “Number of branch points per mm^2 - Baseline-corrected AUC (0-72 h), Mean” value turned out to be 15987.1 per mm^2.
